## Yeast mating assay B: variants of the scFv Ab-14

The measurements come from Li et al. 2023 (doi:10.1038/s41467-023-39022-2) through the FLAb antibody collection.

Target peptide (SARS-CoV-2 spike, HR2 region): PDVDLGDISGINAS

Parent: Ab-14, a human scFv built as VH, a 15-residue (Gly4Ser)3 linker, VL. Only the CDRs of the heavy chain vary.
VH: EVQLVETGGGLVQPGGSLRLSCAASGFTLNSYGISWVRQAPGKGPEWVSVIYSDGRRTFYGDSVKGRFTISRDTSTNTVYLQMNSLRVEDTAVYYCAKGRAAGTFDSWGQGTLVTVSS
VL: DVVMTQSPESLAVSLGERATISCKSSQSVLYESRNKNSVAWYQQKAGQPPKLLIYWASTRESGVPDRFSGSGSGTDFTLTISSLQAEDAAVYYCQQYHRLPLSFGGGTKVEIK

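Phage display of a naive human antibody library on the peptide gave the parent. These sequences belong to a second round, designed from the earlier measurements on random variants of the parent. Group labels follow the data file (Ctrl: baseline library sampled from a position-specific scoring matrix, with some repeated check sequences; Rand: our label for a block that the file lists under HC and that is probably the random mutants of the ten best first-round binders; GP: Gaussian process model; GPLM: also part of the Gaussian process libraries; HC: hill climbing; Gen: genetic algorithm; Gibbs: Gibbs sampling; a sequence that several methods proposed may carry one label only). In AlphaSeq, yeast of one mating type display the scFv and yeast of the other type display the target. The frequency of each diploid, read from paired DNA barcodes, reflects how well the two displayed proteins bind. A regression on co-assayed BCL2-family reference pairs converts the normalised counts of each replicate to an apparent Kd. Each pool was mated in six replicate cultures.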

Variants are written as CDR1, CDR2 and CDR3 of the heavy chain (limits as in the source). Parent: GFTLNSYGIS, VIYSDGRRTFYGDSVK, GRAAGTFDS. Variants here have at most six changes. Kd is apparent (estimated from mating counts) and averaged on the log scale over replicates with a signal. Smaller is tighter. "nd" means that the variant was in the library but no mating with the target was seen in any replicate; the authors take this as a sign of poor binding, and no number exists. Order: sorted from the lowest average up, undetected variants last.

- GFDLNSYGIS / VIYSDGRRTFYEDSVK / GRTAGTFDS [GPLM_Gen] = 440 pM (6 of 6 replicates)
- GFTLNDYGIS / VIYSDGRRTFYSDSVK / GRAAGTFDK [GPLM_HC] = 720 pM (6 of 6 replicates)
- GFHLNSYGIS / VIYSDGRRTFYADSVK / GKNAGTFDS [GP_Gen] = 960 pM (5 of 6 replicates)
- GFTLNEYGIS / VIYSDGRRTFYGDSVK / GRVAGTFDS [Ctrl+GPLM_Gen] = 1.0 nM (12 of 12 replicates)
- GFTLNSYGIS / VIYSDGRRTFYADSVK / GTLAGTFDS [GP_HC] = 1.3 nM (6 of 6 replicates)
- GFSLNSYGIS / VIYSDGRRTFYGDSVK / GQTAGTFDT [GPLM_Gen] = 1.6 nM (4 of 6 replicates)
- GFLLNSYGIS / VIYSDGRRTFYADSVK / GKTAGTFDS [GPLM_Gen] = 2.1 nM (6 of 6 replicates)
- GFQLNSYGIS / VIYSDGRRTFYADSVK / GRQAGTFDT [GP_Gen] = 2.5 nM (6 of 6 replicates)
- GFTLNSYGIS / VIYSDGMRTFYSDSVK / GRAVGTFDS [GPLM_HC] = 3.2 nM (6 of 6 replicates)
- GFSLNSYGIS / VIYSDGRRTAYSDSVK / GRAGGTFDS [GP_HC] = 3.7 nM (6 of 6 replicates)
- GFSLNSYGIS / VIYSDGRRTFYGDSVK / GMAAGTFDS [Ctrl+GPLM_Gen] = 4.1 nM (12 of 12 replicates)
- GFELNSYGIS / VIYSDGRRTAYKDSVK / GRAAGTFDS [GP_Gen] = 4.9 nM (6 of 6 replicates)
- GFELNAYGIS / VIYSDGRRTYYGDSVK / GRTAGTFDS [GP_Gibbs] = 4.9 nM (5 of 6 replicates)
- GFTLNDYGIS / VIYADGRRTFYGDSVK / GRAAGTWDS [Ctrl] = 5.1 nM (6 of 6 replicates)
- GFSLNSYGIS / VIYSDGRRTFYADSVK / GWAAGTFDK [GPLM_Gibbs] = 5.7 nM (2 of 6 replicates)
- GFTLNQYGIS / VEYSDGRRTFYSDSVK / GRAAGFFDL [Rand] = 6.0 nM (6 of 6 replicates)
- YFDLNMYGIS / VIYSDGRRTFYGDSVK / GRTAGTFDS [GP_Gibbs] = 6.7 nM (3 of 6 replicates)
- GFTLNDFGIS / VIYSDGRRTFYIDSVK / GRAAGTFDS [GP_HC] = 7.1 nM (4 of 6 replicates)
- GFTLNSYGIS / VIYSDGRRTFYADDVK / GRAAGTFDT [GP_Gibbs] = 7.3 nM (6 of 6 replicates)
- GFDLNSYGIS / VIYSDGRRTFYGDSVK / GNAAGTFDR [GP_Gibbs] = 7.9 nM (6 of 6 replicates)
- GFDLNSYGIS / VIYSDGRRTFYHDRVK / GRTAGTFDS [GP_Gen] = 8.3 nM (6 of 6 replicates)
- GFNLNSYGIS / VIYSDGRRTFYADSVK / GHVAGTFDS [GPLM_Gibbs] = 13 nM (6 of 6 replicates)
- GFTLNSYGIS / VIYSDGRRTFYSDSVK / GEAAGTFDF [GPLM_Gen] = 14 nM (5 of 6 replicates)
- GFNLNSYGIS / VIYSDGRRTFYADPVK / GQAAGTFDS [GPLM_Gen] = 15 nM (6 of 6 replicates)
- GFSLNYYGIS / VIYSDGRRTFYGDSVK / GRTAGTFDT [GPLM_Gen] = 16 nM (5 of 6 replicates)
- GFQLNDYGIS / VIYSDGRRTYYGDSVK / GRAAGTFDS [GP_HC] = 19 nM (6 of 6 replicates)
- GFELNMYGIS / VIYSDGRRTFYGDSVK / GRQAGTFDS [GPLM_Gibbs] = 30 nM (5 of 6 replicates)
- GFYLNSYGIS / VIYSDGRRTFYGDSVK / GKTAGTFDV [GP_Gibbs] = 32 nM (4 of 6 replicates)
- GFTLNEYGIS / VIYSDGRRTFYHDDVK / GRTAGTFDS [GP_HC] = 35 nM (6 of 6 replicates)
- GFTLNSYGIS / VIYSDGMRTFYSDSVK / GRVAGTFDS [GPLM_Gibbs] = 39 nM (5 of 6 replicates)
- GFTLNQYGIS / VIYSDGRRTFYGDSVK / GRASGTFDS [Ctrl] = 50 nM (2 of 6 replicates)
- GFTLNSYGIS / VIYSDGRRTWYGDSVK / GRAACTFDS [Ctrl] = 68 nM (2 of 6 replicates)
- GFTLESYGIS / VIYSDGRRTFYQDKVK / GRAAGTFDS [GP_Gibbs] = 71 nM (2 of 6 replicates)
- GFTLDSYGIS / VIYSDGRRTSYGDSVK / GKAAGTFDS [Ctrl] = 92 nM (6 of 6 replicates)
- HFSLNSYGIS / VIYSDGRRTFYIDSVK / GNAAGTFDS [GP_Gen] = 120 nM (4 of 6 replicates)
- GFHLMSYGIS / VIYSDGRRTSYGDSVK / GRAAGTFDS [Ctrl] = 130 nM (2 of 6 replicates)
- GETLNSYGIS / VIYSDGERTMYGDSVK / GRAAGTFDS [Ctrl] = 200 nM (2 of 6 replicates)
- GFTLNEYGIS / VIYADGRRTFYGDSVK / GRAAGTNDS [GPLM_HC] = 210 nM (5 of 6 replicates)
- GFTLNSYGIS / VIYSDGRRTFYGDCYK / GNAAGTFDS [Ctrl] = nd (0 of 6 replicates)
- GFDLNSYGIS / VIYSDGRRTFYGDSVK / GREAGRFNS [GPLM_HC] = nd (0 of 6 replicates)
- GFTLNSYGIS / VIYSDGRRTFYGDSFK / GRAASTFDS [Ctrl] = nd (0 of 6 replicates)
- DFTLNEYGIS / VIYSDGRRTFYGDSVK / GRAAVTFDK [GP_HC] = nd (0 of 6 replicates)
- GFTLNSYGIS / VDYSDGRRTMYGDSVK / GTAAGTFDS [Ctrl] = nd (0 of 6 replicates)
- GFDLNSYGIS / VIYSDGRRTFYGDSEK / GRAIGWFNS [Rand] = nd (0 of 6 replicates)
- GFTLNSYGIR / VIYADGRRTFYADSVK / GRAAGTNKS [Rand] = nd (0 of 6 replicates)
- GFTLNSYGIS / VIYSDGWRTAYGDSVK / GRAAGTFHT [Ctrl] = nd (0 of 6 replicates)
- GFTLESYGIS / VIYADGRRTFYGDPVK / GRAAGTFDS [GP_HC] = nd (0 of 6 replicates)
- GFSLNEYGIS / VIYSDGRRTFYCDSVK / GPAAGTFDK [GP_HC] = nd (0 of 6 replicates)
- GFTLKSYGIS / VIYSDGRRTHYGDSVK / GRAAGTFDM [Ctrl] = nd (0 of 6 replicates)
- GFTLNNYGIS / VPYSDGRRTFYGDKVK / GRAAGQFDS [Ctrl] = nd (0 of 6 replicates)
- GFDLNSYGIS / VIYSDGRRTFYQDSVK / GEAAGTFDN [GP_Gibbs] = nd (0 of 6 replicates)

The first 9 entries again:

* GFDLNSYGIS / VIYSDGRRTFYEDSVK / GRTAGTFDS [GPLM_Gen] -> 440 pM (6 of 6 replicates)
* GFTLNDYGIS / VIYSDGRRTFYSDSVK / GRAAGTFDK [GPLM_HC] -> 720 pM (6 of 6 replicates)
* GFHLNSYGIS / VIYSDGRRTFYADSVK / GKNAGTFDS [GP_Gen] -> 960 pM (5 of 6 replicates)
* GFTLNEYGIS / VIYSDGRRTFYGDSVK / GRVAGTFDS [Ctrl+GPLM_Gen] -> 1.0 nM (12 of 12 replicates)
* GFTLNSYGIS / VIYSDGRRTFYADSVK / GTLAGTFDS [GP_HC] -> 1.3 nM (6 of 6 replicates)
* GFSLNSYGIS / VIYSDGRRTFYGDSVK / GQTAGTFDT [GPLM_Gen] -> 1.6 nM (4 of 6 replicates)
* GFLLNSYGIS / VIYSDGRRTFYADSVK / GKTAGTFDS [GPLM_Gen] -> 2.1 nM (6 of 6 replicates)
* GFQLNSYGIS / VIYSDGRRTFYADSVK / GRQAGTFDT [GP_Gen] -> 2.5 nM (6 of 6 replicates)
* GFTLNSYGIS / VIYSDGMRTFYSDSVK / GRAVGTFDS [GPLM_HC] -> 3.2 nM (6 of 6 replicates)

The range of this assay differs from that of the first round, and the authors advise against merging the two. Of ten entries with the parent sequence, four were seen in most replicates (averages 2.2 nM to 240 nM), three in one and three in none, so single entries are noisy. In the paper, a design with two or fewer of six values counts as a poor binder. A sequence that the file lists under several names has all its replicates pooled. Nonspecific signal, from three strains lacking the peptide, appeared in 1% of pairings of all heavy chain designs, centred on 120 nM (5% of these signals below 7.0 nM); values are not corrected for it.